{"source": "PubChem BioAssay AID493008", "about": "(The Scripps Research Institute Molecular Screening Center, 2010)", "note": "This is a selection; strong and weak results do not stand in their true shares. The source made the active and inactive calls.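 How the source made its calls: active means activation above the mean over all tested compounds plus 3 SD (cut at about 30% in these data); inactive means the rest.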"}
{"molecular_target": "Troponin I, cardiac muscle (Homo sapiens) + Troponin T, cardiac muscle (Homo sapiens) + Troponin C, slow skeletal and cardiac muscles (Homo sapiens) (UniProt P19429+P45379+P63316)", "experiment": "cardiac RTF calcium sensitivity activators, primary screen, biochemical, IANBD-TnC fluorescence, EC20 calcium (AID 493008);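 further: rise in fluorescence read as greater calcium sensitivity of cardiac thin filaments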", "conditions": "IANBD-labeled TnC RTF fluorescence at EC20 calcium; at 7.2 µM; stronger effect = higher value; 0% EC20 calcium, 100% full calcium"}
{"smiles": "Fc1ccccc1NC1CCN(Cc2ccccc2)CC1", "activation": "inactive: 2.81%"}
{"smiles": "CCOC(=O)N1CCC(Nc2cccc(C)c2)CC1", "activation": "inactive: 4.49%"}
{"smiles": "COc1cc(C(=O)NCC2(N(C)C)CCCCC2)ccc1OC(F)F", "activation": "inactive: 3.67%"}
{"smiles": "CCOc1ccc(C)cc1CN(CCCl)CCCl", "activation": "inactive: 7.74%"}
{"smiles": "O=C1CCN(Cc2ccccc2)CC1", "activation": "inactive: 8.26%"}
{"smiles": "O=P1(N(CCCl)CCCl)SCCCS1", "activation": "inactive: -7.33%"}
{"smiles": "CCCCOc1ccc(C(=O)NCC2(N3CCOCC3)CCCCC2)cc1", "activation": "inactive: -5.81%"}
{"smiles": "O=C(NCC1(N2CCCCC2)CCCCC1)c1ccc(F)cc1", "activation": "inactive: -2.86%"}
{"smiles": "COc1ccc(NC2CCN(CCc3ccccc3)CC2)c(OC)c1", "activation": "inactive: -3.32%"}
{"smiles": "CCOC(=O)N1CCC(Nc2ccc(F)cc2)CC1", "activation": "inactive: -4.38%"}
{"smiles": "O=C(NCC1(N2CCOCC2)CCCCC1)c1cc2ccccc2o1", "activation": "inactive: -2.21%"}
{"smiles": "O=C(NCC1(N2CCCCC2)CCCCC1)c1ccc(Cl)nc1", "activation": "inactive: 0.09%"}
{"smiles": "Cc1cc(C)cc(N(C(=O)c2ccccc2)C2CCN(C(=O)OC(C)(C)C)CC2)c1", "activation": "inactive: 1.91%"}
{"smiles": "CCOC(=O)N1CCC(Nc2ccc(OC)cc2)CC1", "activation": "inactive: -6.46%"}
{"smiles": "N#CC1(Nc2ccccc2)CCN(Cc2ccccc2)CC1", "activation": "inactive: -0.83%"}
{"smiles": "O=C(NCC1(N2CCCCC2)CCCCC1)c1ccc(Cl)s1", "activation": "inactive: 1.35%"}
{"smiles": "O=C(OC1CN2CCC1CC2)C1c2ccccc2Oc2ccccc21", "note": "(centres undefined)", "activation": "inactive: -3.21%"}
{"smiles": "COc1ccc(Cl)cc1C(=O)NCC1(N2CCOCC2)CCCCC1", "activation": "inactive: -2.7%"}
{"smiles": "O=C(NCC1(N2CCCCC2)CCCCC1)c1ccc(=O)[nH]c1", "activation": "inactive: 3%"}
{"smiles": "O=C(NCC1(N2CCCCC2)CCCCC1)c1cccs1", "activation": "inactive: -0.71%"}
{"smiles": "COc1ccc(C(=O)NCC2(N3CCCCC3)CCCCC2)cc1", "activation": "inactive: -3.17%"}
{"smiles": "COc1ccc(C(=O)NCC2(N3CCCCC3)CCCCC2)c(OC)c1OC", "activation": "inactive: 2.18%"}
{"smiles": "CC(C)(C)OC(=O)N1CCC(N(C(=O)c2ccccc2)c2ccc(F)cc2)CC1", "activation": "inactive: 4.32%"}
{"smiles": "CSc1ccccc1C(=O)NCC1(N2CCCCC2)CCCCC1", "activation": "inactive: 5.03%"}
{"smiles": "Cc1cccc(NC2(C#N)CCN(Cc3ccccc3)CC2)c1", "activation": "inactive: 4.14%"}
{"smiles": "CN1CCC(Nc2cccc(F)c2)CC1", "activation": "inactive: -5.15%"}
{"smiles": "O=C(NCC1(N2CCCCC2)CCCCC1)c1cncc(Br)c1", "activation": "inactive: -3.19%"}
{"smiles": "CCCOc1ccc(C(=O)NCC2(N(C)C)CCCCC2)cc1OC", "activation": "inactive: 7.25%"}
{"smiles": "COc1ccc(CN(CCCl)CCCl)cc1Cl", "activation": "inactive: 3.78%"}
{"smiles": "CN(C)c1cccc(C(=O)NCC2(N3CCCCC3)CCCCC2)c1", "activation": "inactive: 3.51%"}
{"smiles": "CC(C)c1ccc(NC2CCN(C(=O)OC(C)(C)C)CC2)cc1", "activation": "inactive: 5.6%"}
{"smiles": "COc1cc(OC)c(C(=O)NCC2(N(C)C)CCCCC2)cc1OC", "activation": "inactive: -4.85%"}
{"smiles": "O=C(NCC1(N2CCOCC2)CCCCC1)c1cc(F)c(F)cc1Cl", "activation": "inactive: -1.78%"}
{"smiles": "O=C(NCC1(N2CCCCC2)CCCCC1)c1cccc(C(F)(F)F)c1", "activation": "inactive: 0.55%"}
{"smiles": "CN1CCN(CCOC(=O)C(O)(c2ccccc2)c2ccccc2)CC1", "activation": "inactive: -1%"}
{"smiles": "COc1ccc(NC2CCN(C(=O)OC(C)(C)C)CC2)cc1", "activation": "inactive: 1.14%"}
{"smiles": "CC(C)c1ccc(C(=O)NCC2(N3CCOCC3)CCCCC2)cc1", "activation": "inactive: -0.01%"}
{"smiles": "COc1cc(C(=O)NCC2(N3CCCCC3)CCCCC2)ccc1OC(F)F", "activation": "inactive: 5.6%"}
{"smiles": "O=C(NCC1(N2CCOCC2)CCCCC1)c1cc(=O)[nH]c2ccccc12", "activation": "inactive: -0.04%"}
{"smiles": "O=C(NCC1(N2CCCCC2)CCCCC1)c1ccc(OC(F)F)cc1", "activation": "inactive: 4.66%"}
{"smiles": "CSc1ccc(C(=O)NCC2(N3CCOCC3)CCCCC2)cc1", "activation": "inactive: -9.14%"}
{"smiles": "O=C(NCC1(N2CCCCC2)CCCCC1)c1cccc([N+](=O)[O-])c1", "activation": "inactive: 1.05%"}
{"smiles": "CCN1CCC(Nc2ccc(Cl)cc2)CC1", "activation": "inactive: -0.07%"}
{"smiles": "N#CC1(Nc2ccccc2)CCN(CCc2ccccc2)CC1", "activation": "inactive: 1.61%"}
